Consider 55 compounds from PubChem BioAssay AID2235 (The Scripps Research Institute Molecular Screening Center, 2010).

The chains behind the UniProt entries cited, without tags or fusion partners.
UniProt P62136, whole entry: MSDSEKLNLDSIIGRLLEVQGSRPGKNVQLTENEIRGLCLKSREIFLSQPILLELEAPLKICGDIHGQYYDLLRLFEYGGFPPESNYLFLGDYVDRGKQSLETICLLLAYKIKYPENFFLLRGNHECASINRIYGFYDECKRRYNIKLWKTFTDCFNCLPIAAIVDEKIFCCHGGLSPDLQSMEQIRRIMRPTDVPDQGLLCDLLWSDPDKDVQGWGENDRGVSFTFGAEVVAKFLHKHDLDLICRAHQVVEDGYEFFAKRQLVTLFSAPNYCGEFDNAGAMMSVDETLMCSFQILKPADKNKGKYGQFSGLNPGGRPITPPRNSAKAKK

This is a selection; strong and weak results do not stand in their true shares. Some salts or complexes appear as unconnected parts, following the source record. Calls of active or inactive are those of the source.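 The calls were made as follows: active = inhibition above the mean inhibition of all tested compounds plus 3 SD, computed separately for each screening campaign (cut at about 15% in these data); inactive = the rest.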

This assay concerns the target Serine/threonine-protein phosphatase PP1-alpha catalytic subunit (Homo sapiens) (UniProt P62136). Briefly: inhibition of human PP1 catalytic subunit – biochemical, fluorescence, OMFP substrate, single point, counter-screen for PP5 inhibitor project, primary screen (AID 2235). Particulars: purified PP1alpha, at 6.7 µM, stronger effect = higher value. A general note: A counterscreen serves to expose hits that act by an unwanted route or on another target.
As usually defined, the inhibition is the relative decrease from the control value, in per cent. Turning to `CCOC(=O)c1ccc(NP(C)(=O)Oc2ccc(Cl)cc2)cc1` (stereo not given), the inhibition is inactive: 2.31%.
In the case of `CP(=O)(OC12CC3CC(CC(C3)C1)C2)OC12CC3CC(CC(C3)C1)C2`, the inhibition is inactive: 3.66%.
The result for `Nc1ccc2c(ccc3cccnc32)n1.O=[N+]([O-])c1cc([N+](=O)[O-])c(O)c([N+](=O)[O-])c1` reads inactive: -4.07%.
The value for `CN(C)C(=O)c1c([N+](=O)[O-])cc([N+](=O)[O-])cc1[N+](=O)[O-]` was inactive: 4.57%; that for `CC(C)(C)c1ccc(OP(C)(=O)O)cc1` was inactive: -1.13%.
The value for `COc1ccccc1OP(C)(=O)Nc1ccccc1Br` (stereo not given) was inactive: 1.42%.
In the case of `CP(=O)(Nc1ccc(Cl)cc1)Oc1ccc(F)cc1` (stereo not given), the inhibition is inactive: 1.65%.
`O=C(OCCCN1CCCC1)C(O)(c1ccccc1)C1CCCCC1` (stereo not given): the inhibition is inactive: -4.55%.
The result for `COc1ccccc1OP(C)(=O)Nc1c(C)n(C)n(-c2ccccc2)c1=O` (stereo not given) reads inactive: 2.33%; that for `CCc1ccc(OP(C)(=O)Nc2cccnc2)cc1` (stereo not given), inactive: 1.87%; that for `CP(=O)(Oc1ccccc1)N1CCOC1=O` (stereo not given), inactive: 3.13%.
`COc1ccc(OP(C)(=O)Nc2ccc(Br)cc2)cc1` (stereo not given): the inhibition is inactive: 0.19%.
The value for `CCN(CC)CC(O)COC(=O)C(O)(c1ccccc1)C1CCCCC1` (stereo not given) was inactive: -2.59%.
The value for `COc1ccccc1OP(C)(=O)Nc1ccc(C)cc1C` (stereo not given) was inactive: -1.74%; that for `CP(=O)(Nc1ccccn1)Oc1ccccc1` (stereo not given) was inactive: 0.41%.
The result for `CCc1ccc(OP(C)(=O)O)cc1` reads inactive: -5.21%; that for `O=[N+]([O-])c1cc([N+](=O)[O-])c(Nc2ccccn2)c([N+](=O)[O-])c1`, inactive: 2.33%.
On to `Cc1c(NP(C)(=O)Oc2ccc(C(C)C)cc2)c(=O)n(-c2ccccc2)n1C` (stereo not given), for which the inhibition is inactive: -0.27%.
The value for `COc1ccc(OP(C)(=O)Nc2ccccn2)cc1` (stereo not given) was inactive: 1.28%.
The result for `CN(C)CCOC(=O)C(O)(c1ccccc1)C1CCCC1` (stereo not given) reads inactive: -0.38%.
The result for `COc1ccccc1OP(C)(=O)Nc1ccc(Br)cc1` (stereo not given) reads inactive: -1.96%; that for `CP(=O)(OCCOc1ccccc1)OCCOc1ccccc1`, inactive: -2.92%; that for `CP(=O)(Nc1ccc(Cl)cc1Cl)Oc1ccccc1` (stereo not given), inactive: 2.64%.
Regarding `Cc1nc2ccc3ccccc3c2o1.O=[N+]([O-])c1cc([N+](=O)[O-])c(O)c([N+](=O)[O-])c1`, the inhibition is inactive: -3.06%.
The result for `COc1ccccc1OP(C)(=O)Nc1ccc(C)c(C)c1` (stereo not given) reads inactive: 1.56%; that for `COc1ccc(OP(C)(=O)Nc2ccccc2Br)cc1` (stereo not given), inactive: -1.05%; that for `Cc1cc(C)cc(OP(C)(=O)Nc2cccc(C(F)(F)F)c2)c1` (stereo not given), inactive: -0.28%.
On to `CP(=O)(Nc1ccccc1)Oc1ccc(F)cc1` (stereo not given), for which the inhibition was inactive: -0.11%.
The value for `O=[N+]([O-])c1cc([N+](=O)[O-])c(OC2CCCCC2O)c([N+](=O)[O-])c1` (stereo not given) was inactive: 0.97%; that for `CCCCCOc1ccc(NP(C)(=O)Oc2ccc(Cl)cc2Cl)cc1` (stereo not given) was inactive: 4.47%.
The result for `CCN(CC)CCCOC(=O)C(O)(c1ccccc1)C1CCCCC1` (stereo not given) reads inactive: -3.93%.
The result for `CCOC(=O)c1ccc(NP(C)(=O)Oc2ccc(F)cc2)cc1` (stereo not given) reads inactive: -2.83%; that for `COc1ccc(OP(C)(=O)Nc2ccc(SC(F)(F)F)cc2)cc1` (stereo not given), inactive: -4.43%.
For `COc1ccc2c(c1O)-c1c(O)c(OC)cc3c1[C@H](C2)[N+](C)(C)CC3.O=[N+]([O-])c1cc([N+](=O)[O-])c([O-])c([N+](=O)[O-])c1[O-]`, the inhibition is inactive: 0.11%.
Turning to `O=C(OC1CN2CCC1CC2)c1ccc([N+](=O)[O-])cc1` (stereo not given), the inhibition is inactive: -2.24%.
The value for `O=C(OCCN1CCN(CCOCc2ccccc2)CC1)C(O)(c1ccccc1)c1ccccc1` was inactive: 5.29%; that for `CP(=O)(Nc1ccccc1F)Oc1ccccc1` (stereo not given) was inactive: -7.14%.
The result for `CC(C)c1ccc(OP(C)(=O)Nc2ccc(SC(F)(F)F)cc2)cc1` (stereo not given) reads inactive: 3.54%.
The result for `Cc1ccccc1NP(C)(=O)Nc1ccccc1C` reads inactive: -1.97%.
For the compound `CP(=O)(Nc1ccc2c(c1)OCCO2)Oc1ccccc1` (stereo not given), the inhibition was inactive: 3.23%.
The result for `CCOP(C)(=S)SCC(=O)NC(C)(CC)C(=O)O` (stereo not given) reads inactive: 0.71%; that for `CP(=O)(Nc1ccc(SC(F)(F)F)cc1)Oc1ccc(F)cc1` (stereo not given), inactive: 0.9%; that for `O=[N+]([O-])c1cc([N+](=O)[O-])c(NCC2CCS(=O)(=O)C2)c([N+](=O)[O-])c1` (stereo not given), inactive: -4.43%.
The value for `CN(C)CCOC(=O)C(O)(c1ccccc1)C1CCCCC1` (stereo not given) was inactive: -0.22%.
The value for `COc1ccc(NP(C)(=O)Oc2ccccc2OC)cc1` (stereo not given) was inactive: -2.65%; that for `COc1ccc(OP(C)(=O)Nc2cccc(Br)c2)cc1` (stereo not given) was inactive: 0.86%.
Turning to `CP(=O)(Nc1ccc(SC(F)(F)F)cc1)Oc1ccccc1` (stereo not given), the inhibition is inactive: 0.96%.
Turning to `CCCOc1ccc(NP(C)(=O)Oc2ccc(Cl)cc2)cc1` (stereo not given), the inhibition is inactive: -1.61%.
In the case of `COc1ccccc1OP(C)(=O)Nc1c(C)cccc1C` (stereo not given), the inhibition is inactive: -1.54%.
The value for `CN1CCCCC1COC(=O)C1(O)c2ccccc2CCc2ccccc21` (stereo not given) was inactive: 2.24%.
The result for `CCOC(=O)C(CC)C1=NC(C)(C)Cc2ccccc21.O=[N+]([O-])c1cc([N+](=O)[O-])c(O)c([N+](=O)[O-])c1` (stereo not given) reads inactive: -4.13%; that for `O=[N+]([O-])c1cc([N+](=O)[O-])c(Nc2nnnn2CCO)c([N+](=O)[O-])c1`, inactive: -0.6%; that for `CC1=C2N=C(C=C3N=C(C(C)=C4[N-][C@@](C)([C@@H]5N=C1[C@](C)(CCC(=O)NC[C@@H](C)OP(=O)([O-])O[C@H]1[C@@H](O)[C@@H](n6cnc7cc(C)c(C)cc76)O[C@@H]1CO)[C@H]5CC(N)=O)[C@@](C)(CC(N)=O)[C@@H]4CCC(N)=O)[C@@](C)(CC(N)=O)[C@@H]3CCC(N)=O)C(C)(C)[C@@H]2CCC(N)=O.[C-]#N.[Co+3]`, inactive: 4.68%.
The result for `Cc1nc2ccc3ccccc3c2s1.O=[N+]([O-])c1cc([N+](=O)[O-])c(O)c([N+](=O)[O-])c1` reads inactive: -6.84%.
For the compound `O=[N+]([O-])c1cc([N+](=O)[O-])c(-c2cnn(-c3ccccc3)c2)c([N+](=O)[O-])c1`, the inhibition was inactive: -2.21%.
